Test results from article PMC12171319, “3‐Oxabicyclo[3.1.1]heptane as an Isostere of meta‐Benzene” (Angewandte Chemie (International Ed. in English), 2025).

Settings: both, human, pH 7.4

In the case of O=C(O)Cc1ccccc1Nc1c(Cl)cccc1Cl [Diclofenac], the kel is reported as 0.092 min⁻¹.
